# Antibody variant affinities, Ab-91 heavy chain, assay 2

Target: peptide PDVDLGDISGINAS, taken from heptad repeat 2 (HR2) of SARS-CoV-2 spike.

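The starting antibody came from a phage panning campaign against this peptide. The library (AAYL51) carries one to three amino acid substitutions per variant, with no insertions or deletions. The scFvs were displayed on barcoded MATa yeast, the peptide on MATalpha yeast. Mating (16 h, 30 °C) was followed by selection of diploids and sequencing of their barcodes. Scores were corrected for input abundance and mapped to Kd with protein pairs of known affinity run in the same pool. Each pool was mated in three replicate cultures.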

Parent: Ab-91, a human scFv built as VL, a 15-residue (Gly4Ser)3 linker, VH. Only the CDRs of the heavy chain vary.
VL: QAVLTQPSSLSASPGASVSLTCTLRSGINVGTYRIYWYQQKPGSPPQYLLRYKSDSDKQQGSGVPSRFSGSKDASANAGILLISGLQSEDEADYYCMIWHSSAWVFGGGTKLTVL
VH: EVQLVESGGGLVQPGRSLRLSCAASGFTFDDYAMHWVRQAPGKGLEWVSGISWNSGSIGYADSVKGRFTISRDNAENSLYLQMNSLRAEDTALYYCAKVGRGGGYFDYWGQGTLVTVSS

Changes read parent residue, position, new residue, counted from the first residue of the VH shown. The read-out is the apparent dissociation constant on a log10 scale (nM): the lower, the stronger. A pair that was not seen in that replicate is written "n.d."; this usually means weak binding, but a binder can also be missed.

| changes | log10 Kd (nM) by replicate | signal with controls |
|---|---|---|
| W53A+N54M+Y108N | 4.86 / 4.61 / 4.72 | 9 of 9 (5.05) |
| A33T+S52W+G56C | 4.71 / 4.18 / n.d. | 3 of 9 (4.47) |
| A33F+N54W+G103H | n.d. / 5.56 / n.d. | 0 of 9 |
| G50V+I51Y+I58W | n.d. / n.d. / 3.86 | 1 of 9 (3.93) |
| D31L+I51N+S52G | n.d. / 5.12 / n.d. | 3 of 9 (5.23) |
| A33H+M34C+G50D | n.d. / n.d. / 3.32 | 3 of 9 (4.30) |
| F29M+G102K+G104H | 3.73 / n.d. / n.d. | 1 of 9 (4.26) |
| T28D+F106K+D107R | 1.28 / 0.88 / 0.62 | 1 of 9 (3.71) |
| F27A+Y32P+D62R | n.d. / 5.49 / n.d. | 1 of 9 (3.57) |
| G50E+D62L | n.d. / n.d. / n.d. | 0 of 9 |
| W53F+N54E+A61S | 1.23 / 1.10 / 0.74 | 0 of 9 |
| S52P+G102K+G103Y | 3.37 / n.d. / n.d. | 0 of 9 |
| G26L+G102L | 3.89 / n.d. / n.d. | 1 of 9 (3.08) |
| H35Y+W53V+Y60W | 3.50 / n.d. / n.d. | 2 of 9 (3.58) |
| G56V+V64G+Y105M | 4.55 / n.d. / 3.65 | 0 of 9 |
| D30I+N54L | n.d. / n.d. / n.d. | 4 of 9 (4.74) |
| M34I+G50M+G103Q | 4.77 / 4.40 / 4.39 | 3 of 9 (5.33) |
| G26C+A61W+D107P | 5.03 / 4.99 / n.d. | 5 of 9 (4.18) |
| H35M | 4.12 / 5.30 / n.d. | 4 of 9 (4.35) |
| S55G+G56S+A61H | 2.98 / 3.17 / 3.23 | 5 of 9 (5.47) |
| S57V+A61I+V99R | n.d. / n.d. / n.d. | 0 of 9 |
| T28S+D31C+G59W | 3.68 / n.d. / n.d. | 1 of 9 (4.03) |
| T28V+D30C+G59Q | 4.81 / 4.33 / 5.32 | 8 of 9 (5.09) |
| D30L+A61V+V99C | 6.52 / 7.09 / 6.13 | 4 of 9 (5.43) |
| D30H+G50D+G100D | n.d. / n.d. / n.d. | 0 of 9 |
| D62C+V64I+K65W | 6.84 / n.d. / n.d. | 5 of 9 (5.31) |
| G50M+A61C+S63V | 4.15 / n.d. / 4.35 | 2 of 9 (4.40) |
| A33T+A61T+G100A | 3.76 / n.d. / n.d. | 1 of 9 (4.52) |
| D30A+M34K+V99H | n.d. / n.d. / n.d. | 3 of 9 (4.55) |
| D30E+S55Y+Y105M | n.d. / n.d. / 5.28 | 2 of 9 (4.69) |
| G26R+G50T+Y60R | n.d. / n.d. / n.d. | 3 of 9 (3.80) |
| T28P+K65N+G100P | 5.68 / 5.52 / 5.59 | 2 of 9 (4.47) |
| I51M+G56I+G59A | n.d. / 4.58 / n.d. | 6 of 9 (4.10) |
| W53S+G56L+Y60A | 3.39 / n.d. / 3.00 | 0 of 9 |
| A33N+S52E+R101Y | 5.62 / 4.69 / n.d. | 6 of 9 (5.09) |
| D30R+H35C+K65I | n.d. / n.d. / n.d. | 0 of 9 |
| G50N+I58N+G103R | 4.65 / 5.87 / n.d. | 5 of 9 (4.88) |
| R101K+Y105W | 3.41 / 3.26 / n.d. | 0 of 9 |
| D30H+G50I+I51H | n.d. / n.d. / n.d. | 1 of 9 (4.40) |
| G100V+Y105L+F106L | 0.89 / 0.90 / 0.47 | 2 of 9 (4.59) |
| A61C+S63R+G104H | n.d. / n.d. / n.d. | 0 of 9 |
| D30V+G50P+S52V | n.d. / n.d. / n.d. | 0 of 9 |
| Y32N+N54F+K65V | n.d. / n.d. / n.d. | 1 of 9 (4.78) |

Extract of 6 entries:

| changes | log10 Kd (nM) by replicate | signal with controls |
|---|---|---|
| H35Y+W53V+Y60W | 3.50 / n.d. / n.d. | 2 of 9 (3.58) |
| S52P+G102K+G103Y | 3.37 / n.d. / n.d. | 0 of 9 |
| G100V+Y105L+F106L | 0.89 / 0.90 / 0.47 | 2 of 9 (4.59) |
| G50M+A61C+S63V | 4.15 / n.d. / 4.35 | 2 of 9 (4.40) |
| S55G+G56S+A61H | 2.98 / 3.17 / 3.23 | 5 of 9 (5.47) |
| S57V+A61I+V99R | n.d. / n.d. / n.d. | 0 of 9 |

Nonspecific signal, from three strains lacking the peptide, appeared in 21% of pairings of library AAYL51, centred on 4.54 (5% of these signals below 3.26); values are not corrected for it. Also given: how often the same scFv was detected with the empty control strains, with their mean in brackets. Parent in this assay: reference entry 1.86, copy in this library 0.88.

From the AlphaSeq antibody data of Engelhart et al. 2022 (doi:10.1038/s41597-022-01779-4), copy in the FLAb collection.